Test results: US20060204460A1, “Lip gloss composition” (KOKYU ALCOHOL KOGYO CO., LTD., priority 2005, published 2006)

Assay: Viscosity of liquid oil (E) on a Brookfield viscometer
Type: physicochemical
Conditions: at 25 degrees C., No. 2 spindle, 12 rpm
Experimental: The liquid oil having a viscosity of from 5 to 400 mPa·s at 25 degrees C., (E), is known and commonly used in cosmetics. The viscosity of the liquid oil at 25 degrees C. is preferably 8 to 350 mPa·s, and more preferably 12 to 300 mPa·s. […] The viscosity is measured on a Brookfield viscometer using No. 2 spindle at 12 rpm.

Viscosity: 25 mPa·s
Substance: glycerol tri(caprylate/caprate)
